Values of other authors in patent US20070026026A1 (priority 2005, published 2007).

Target: AT1 receptor (Homo sapiens, UniProt P30556)
Conditions: cited from earlier work

CCCCc1nc(Cl)c(CO)n1Cc1ccc(-c2ccccc2-c2nn[nH]n2)cc1 [losartan]
greater affinity for the AT1 receptor than for the AT2 receptor (AT1 versus AT2): about 1000 fold | type of inhibition of the AT1 receptor (in vitro binding studies): reversible, competitive inhibitor
